Read-outs that look alike come from different tables or passages of the source.
Target: human recombinant Btk (Homo sapiens (Human), UniProt Q06187)
Test: Human Recombinant Btk Enzyme Assay
Assay type: biochemical
Description: Human Recombinant Btk Enzyme Assay
To V-bottom 384-well plates were added test compounds, human recombinant Btk (1 nM, Invitrogen Corporation), fluoresceinated peptide (1.5 μM), ATP (20 μM), and assay buffer (20 mM HEPES pH 7.4, 10 mM MgCl2, 0.015% Brij 35 surfactant and 4 mM DTT in 1.6% DMSO), with a final volume of 30 μL. After incubating at room temperature for 60 min, the reaction was terminated by adding 45 μL of 35 mM EDTA to each sample. The reaction mixture was analyzed on the Caliper LABCHIP® 3000 (Caliper, Hopkinton, Mass.) by electrophoretic separation of the fluorescent substrate and phosphorylated product. […] Compounds were dissolved at 10 mM in DMSO and evaluated at eleven concentrations.

By UniProt entry, the sequences of proteins in these tests, tags left out. Where a name states a change or a piece, a line headed by the entry shows the natural chain unless it says otherwise.
UniProt Q06187: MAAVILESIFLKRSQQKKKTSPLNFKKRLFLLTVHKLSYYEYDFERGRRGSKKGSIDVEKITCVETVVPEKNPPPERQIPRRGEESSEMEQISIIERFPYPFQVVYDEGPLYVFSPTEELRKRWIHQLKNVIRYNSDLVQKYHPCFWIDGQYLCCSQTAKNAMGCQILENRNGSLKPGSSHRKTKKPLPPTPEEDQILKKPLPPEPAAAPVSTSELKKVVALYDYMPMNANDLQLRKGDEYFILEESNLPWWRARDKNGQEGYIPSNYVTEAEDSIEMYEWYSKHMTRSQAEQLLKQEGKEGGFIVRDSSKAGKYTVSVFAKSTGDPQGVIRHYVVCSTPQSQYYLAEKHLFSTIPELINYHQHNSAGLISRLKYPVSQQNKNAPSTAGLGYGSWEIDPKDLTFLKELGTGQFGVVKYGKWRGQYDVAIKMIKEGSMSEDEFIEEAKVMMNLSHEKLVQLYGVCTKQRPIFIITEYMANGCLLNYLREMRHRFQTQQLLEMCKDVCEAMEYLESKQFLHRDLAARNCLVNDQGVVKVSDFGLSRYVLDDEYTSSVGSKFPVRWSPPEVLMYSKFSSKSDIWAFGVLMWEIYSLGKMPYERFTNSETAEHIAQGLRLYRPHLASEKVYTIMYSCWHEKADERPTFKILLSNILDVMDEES

[1] = Table 3, ATP 20 μM, 60 min room temperature, read-out: Btk IC50 value
[2] = Table 4, Comparative Example, read-out: Comparative Example Btk IC50
[3] = Table 4, read-out: Example Btk IC50

Structure (SMILES) | IC50 [1] | IC50 [2] | IC50 [3]
C=CC(=O)N1CCc2c(cccc2-c2c(F)cc(C(N)=O)c3[nH]c4c(c23)CCC(C(F)(F)F)C4)C1 (single isomer, unassigned) [Comparative Example 20, 5-(2-Acryloyl-1,2,3,4-tetrahydroisoquinolin-5-yl)-6-fluoro-2-(trifluoromethyl)-2,3,4,9-tetrahydro-1H-carbazole-8-carboxamide] |  | 27 nM | 
C=CC(=O)N1CCc2c(cccc2-c2c(F)cc(C(N)=O)c3[nH]c4c(c23)CCC(C(F)(F)F)C4)C1 (single isomer, unassigned) [Comparative Example 21, 5-(2-Acryloyl-1,2,3,4-tetrahydroisoquinolin-5-yl)-6-fluoro-2-(trifluoromethyl)-2,3,4,9-tetrahydro-1H-carbazole-8-carboxamide] |  | 3 nM | 
C=CC(=O)N1CCc2c(cccc2-c2c(F)cc(C(N)=O)c3[nH]c4c(c23)CCC(C(F)(F)F)C4)C1 (single isomer, unassigned) [Example 10, 5-(2-Acryloyl-1,2,3,4-tetrahydroisoquinolin-5-yl)-6-fluoro-2-(trifluoromethyl)-2,3,4,9-tetrahydro-1H-carbazole-8-carboxamide] | 0.3 nM |  | 0.3 nM

Other lines, results leading:

IC50 [1] | IC50 [2] | IC50 [3] | Structure (SMILES)
0.029 nM |  |  | C=CC(=O)N1CCc2c(cccc2-c2c(F)cc(C(N)=O)c3[nH]c4cc(CCF)ccc4c23)C1 (racemic) [Example 26, 4-(2-acryloyl-1,2,3,4-tetrahydroisoquinolin-5-yl)-3-fluoro-7-(2-fluoroethyl)-9H-carbazole-1-carboxamide]
0.13 nM |  | 0.13 nM | C=CC(=O)N1CCc2c(cccc2-c2c(F)cc(C(N)=O)c3[nH]c4c(c23)CCC(C(F)(F)F)C4)C1 (single isomer, unassigned) [Example 11, 5-(2-Acryloyl-1,2,3,4-tetrahydroisoquinolin-5-yl)-6-fluoro-2-(trifluoromethyl)-2,3,4,9-tetrahydro-1H-carbazole-8-carboxamide]
0.3 nM |  |  | C=CC(=O)N1CCc2c(cccc2-c2c(Cl)cc(C(N)=O)c3[nH]c4ccccc4c23)C1 [Example 30]
